## Measured affinities in a library of Ab-91 heavy chain variants

Binding partner: SARS-CoV-2 spike HR2 peptide, sequence PDVDLGDISGINAS.

Ab-91 is the parent antibody, in scFv form: VL, then three GGGGS repeats, then VH. The light chain is unchanged in all variants.
VL: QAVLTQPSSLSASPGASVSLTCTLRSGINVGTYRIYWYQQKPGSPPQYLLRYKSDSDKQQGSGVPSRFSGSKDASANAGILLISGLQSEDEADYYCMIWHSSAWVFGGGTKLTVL
VH: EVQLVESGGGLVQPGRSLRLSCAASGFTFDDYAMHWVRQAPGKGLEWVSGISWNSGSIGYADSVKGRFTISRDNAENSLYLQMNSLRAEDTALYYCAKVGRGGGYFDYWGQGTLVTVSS

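The parent was found by panning a naive human phage display library on the peptide. AAYL51 was designed without a model: most single CDR substitutions and a random sample of double and triple ones. AlphaSeq pools MATa yeast showing the antibodies with MATalpha yeast showing the peptide. After mating in shaken culture at 30 °C for 16 h, diploids were selected and their barcode pairs sequenced. Scores were corrected for input abundance and mapped to Kd with protein pairs of known affinity run in the same pool. Each pool was mated in three replicate cultures.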

Variants are written as CDR1, CDR2 and CDR3 of the heavy chain (limits as in the source). Parent: GFTFDDYAMH, GISWNSGSIGYADSVK, VGRGGGYFDY. Values are log10 of the apparent Kd in nM; lower means stronger binding. Replicates are averaged; those with no signal do not enter the mean. "nd" means that the variant was in the library but no mating with the target was seen in that replicate; the authors take this as a sign of poor binding, and no number exists. Empty control strains, which show no peptide, gave a signal in 21% of pairings with library AAYL51; the median was 4.54 and 95% of these signals were weaker than 3.26. No background was subtracted. The control count says in how many pairings with the empty strains this scFv gave a signal, with their mean in brackets.

| # | CDR-H1 | CDR-H2 | CDR-H3 | replicates, log10 nM | mean, log10 nM | control signals |
|---|---|---|---|---|---|---|
| 1 | GFTFDHYGTH | GISWNSGSIGYADSVK | VGRGGGYFDY | 2.26 / 2.33 / 2.31 | 2.30 | 2/9 (4.01) |
| 2 | QFTFDDYAGH | GISWNSGLIGYADSVK | VGRGGGYFDY | 4.30 / 6.12 / 4.49 | 4.97 | 9/9 (5.30) |
| 3 | QFTFDDYAMH | GISWNSGSFGYADSVK | VGRTGGYFDY | 5.18 / 5.39 / 4.82 | 5.13 | 3/9 (4.47) |
| 4 | GFTFSDYAMH | MISWNSGSIGYADSVK | VGRGGGYFDY | nd / nd / nd | nd | 0/9 |
| 5 | GFTFDDYAMH | GISRNSGSIGYADDVK | VGRGGGYFDA | 1.37 / 1.24 / 0.72 | 1.11 | 4/9 (5.39) |
| 6 | GFTFDDWAMT | GISWNSGSIGYADSVK | VERGGGYFDY | 4.50 / nd / 4.64 | 4.57 | 2/9 (4.80) |
| 7 | SFTFDDFAMH | QISWNSGSIGYADSVK | VGRGGGYFDY | nd / 5.38 / nd | 5.38 | 2/9 (3.64) |
| 8 | GDTFDDYAMH | GISWNSGSIGGADSVK | CGRGGGYFDY | nd / nd / nd | nd | 0/9 |
| 9 | GFTFDDYAMH | HISWNSGSIGYADPVK | VGRGGAYFDY | nd / nd / nd | nd | 1/9 (3.86) |
| 10 | GFTEDDYAMH | GISANSGSIGYAWSVK | VGRGGGYFDY | 4.04 / nd / 5.21 | 4.63 | 0/9 |
| 11 | GFTFDDWAMH | GYSWNSGSIGYADSVK | VGRGGGYFIY | nd / nd / nd | nd | 1/9 (4.86) |
| 12 | GNTFDDYAMH | GISWNSGKIGYADSVK | VGRGGNYFDY | 5.10 / nd / nd | 5.10 | 3/9 (4.71) |
| 13 | GFTFDDYAMH | GISWNSGSIGYADSVK | VGKGGGYPKY | 4.29 / nd / nd | 4.29 | 3/9 (4.14) |
| 14 | GMTFDDYAMH | GIRWRSGSIGYADSVK | VGRGGGYFDY | nd / nd / nd | nd | 1/9 (2.47) |
| 15 | GFTFDDYAEH | GISWNSGSIGYADSWI | VGRGGGYFDY | nd / nd / nd | nd | 0/9 |
| 16 | GFTFDDYAMH | GISWNSGSIGYADSVP | WGRGGGYLDY | nd / nd / nd | nd | 3/9 (4.49) |
| 17 | GITFDDYAMH | GISWNSGSIGYADSVK | VGRGGGYVPY | nd / nd / nd | nd | 0/9 |
| 18 | VFIFRDYAMH | GISWNSGSIGYADSVK | VGRGGGYFDY | nd / nd / nd | nd | 1/9 (4.10) |
| 19 | GFTFDDYAMH | EISWTSGSIGYADIVK | VGRGGGYFDY | 4.85 / nd / nd | 4.85 | 0/9 |
| 20 | GFTFDDYAMH | GISHNSGSIGYPGSVK | VGRGGGYFDY | nd / nd / nd | nd | 2/9 (3.87) |
| 21 | IFTFDDYIMH | GISWNSGSCGYADSVK | VGRGGGYFDY | 2.09 / 2.52 / 2.15 | 2.25 | 0/9 |
| 22 | GFCFDDYAMH | GISWNSGSIGYADSVK | VGRIGGYFLY | nd / nd / 3.90 | 3.90 | 5/9 (3.75) |
| 23 | GFTFDDYAGH | SISWNSGSIGYADSVK | VGRGGGYFDY | nd / nd / nd | nd | 0/9 |
| 24 | GFTFDDYIMH | GISANSGSIGYADSVK | VGRGGGDFDY | nd / nd / nd | nd | 2/9 (3.61) |
| 25 | GVTFDDYAMH | GISWNTGFIGYADSVK | VGRGGGYFDY | 1.94 / 2.99 / 2.00 | 2.31 | 0/9 |
| 26 | GFTHDDYAMH | GISSNSGSIGYARSVK | VGRGGGYFDY | nd / nd / nd | nd | 1/9 (4.14) |
| 27 | GFTFDDYAMH | GISWNQGSIGYGDNVK | VGRGGGYFDY | 3.37 / nd / nd | 3.37 | 2/9 (4.29) |
| 28 | GFTFIIYAMH | GISWNSGSIGYADSVK | VGRGGWYFDY | nd / nd / nd | nd | 0/9 |
| 29 | GFTFDDYAMH | GIKWNSGSIGYAYSVK | VGRMGGYFDY | nd / nd / nd | nd | 0/9 |
| 30 | GFLFDDYAMH | GISWNSVSIGYADGVK | VGRGGGYFDY | nd / nd / 4.59 | 4.59 | 4/9 (3.62) |

The 3 strongest on average among those seen in every replicate, once more:

| CDR-H1 | CDR-H2 | CDR-H3 | replicates, log10 nM | mean, log10 nM | control signals |
|---|---|---|---|---|---|
| GFTFDDYAMH | GISRNSGSIGYADDVK | VGRGGGYFDA | 1.37 / 1.24 / 0.72 | 1.11 | 4/9 (5.39) |
| IFTFDDYIMH | GISWNSGSCGYADSVK | VGRGGGYFDY | 2.09 / 2.52 / 2.15 | 2.25 | 0/9 |
| GFTFDHYGTH | GISWNSGSIGYADSVK | VGRGGGYFDY | 2.26 / 2.33 / 2.31 | 2.30 | 2/9 (4.01) |

In this assay the parent's reference entry averaged 1.86; its copy inside this library read 0.88.

Reference: Engelhart et al. 2022, doi:10.1038/s41597-022-01779-4. File: FLAb, binding data.